Test results as given in ChEMBL document CHEMBL5126521, “Analgesic Opioid Ligand Discovery Based on Nonmorphinan Scaffolds Derived from Natural Sources” (J Med Chem, 2022).

Sequences of proteins named here, by UniProt entry; tags and fusion partners are left off.
UniProt P35372, whole entry: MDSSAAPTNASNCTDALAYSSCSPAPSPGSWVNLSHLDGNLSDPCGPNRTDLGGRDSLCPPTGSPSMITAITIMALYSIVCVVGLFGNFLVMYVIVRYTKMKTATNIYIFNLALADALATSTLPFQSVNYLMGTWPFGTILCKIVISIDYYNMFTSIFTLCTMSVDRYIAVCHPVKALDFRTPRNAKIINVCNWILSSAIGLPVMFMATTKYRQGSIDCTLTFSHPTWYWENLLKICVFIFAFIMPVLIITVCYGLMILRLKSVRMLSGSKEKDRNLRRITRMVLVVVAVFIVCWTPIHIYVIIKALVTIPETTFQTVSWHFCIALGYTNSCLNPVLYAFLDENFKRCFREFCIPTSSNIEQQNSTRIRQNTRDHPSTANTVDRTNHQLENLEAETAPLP

Biological target: Mu-type opioid receptor (Homo sapiens, UniProt P35372)

SMILES: C[C@@H](NC(=O)[C@@H](N)Cc1ccc(O)cc1)C(=O)N[C@@H](Cc1ccccc1)C(=O)NCC(=O)N[C@@H](Cc1ccc(O)cc1)C(=O)N1CCC[C@H]1C(=O)N[C@@H](CO)C(N)=O
- Ki: 2170 nM

SMILES: C[C@@H](NC(=O)[C@@H](N)Cc1ccc(O)cc1)C(=O)N[C@@H](Cc1ccccc1)C(=O)NCC(=O)N[C@@H](Cc1ccc(O)cc1)C(=O)N1CCC[C@H]1C(=O)N[C@@H](CO)C(N)=O [DERMORPHIN]
- Ki: 0.54 nM
